The values below are quoted from earlier work in patent EP2179735A1, “PHARMACEUTICAL COMPOSITION COMBINING L[…] CLONAZEPAM, AND USE THEREOF FOR TREATING […] AND EPILEPTIC SYNDROMES” (WORLD-TRADE IMPORT-EXPORT, WTIE, A.G., priority 2007, dated 2009).

The conditions of the series: cited from earlier work.

With `Nc1nnc(-c2cccc(Cl)c2Cl)c(N)n1` [LTG, Lamotrigine], the bioavailability entry (orally administered) was “about 98%”.

Turning to `O=C1CN=C(c2ccccc2Cl)c2cc([N+](=O)[O-])ccc2N1` [CZP, Clonazepam], where the note is “in vivo”, the half life is 30 to 40 h.
